# AlphaSeq binding of Ab-14 heavy chain variants to a spike HR2 peptide

Reference: Li et al. 2023, doi:10.1038/s41467-023-39022-2. File: FLAb, binding data.

Target peptide (SARS-CoV-2 spike, HR2 region): PDVDLGDISGINAS

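Phage display of a naive human antibody library on the peptide gave the parent. The variants were designed computationally from a first round of random CDR variants and then made and measured. Group labels follow the data file (Ctrl: baseline library sampled from a position-specific scoring matrix, with some repeated check sequences; Rand: our label for a block that the file lists under HC and that is probably the random mutants of the ten best first-round binders; GP: Gaussian process model; GPLM: also part of the Gaussian process libraries; HC: hill climbing; Gen: genetic algorithm; Gibbs: Gibbs sampling; a sequence that several methods proposed may carry one label only). The scFvs were displayed on barcoded MATa yeast, the peptide on MATalpha yeast. After mating in shaken culture at 30 °C for 16 h, diploids were selected and their barcode pairs sequenced. Scores were corrected for input abundance and mapped to Kd with protein pairs of known affinity run in the same pool. Each pool was mated in six replicate cultures.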

The variants keep the light chain, the linker and the frameworks of Ab-14 (scFv order VH, the linker GGGGSGGGGSGGGGS, VL).
VH: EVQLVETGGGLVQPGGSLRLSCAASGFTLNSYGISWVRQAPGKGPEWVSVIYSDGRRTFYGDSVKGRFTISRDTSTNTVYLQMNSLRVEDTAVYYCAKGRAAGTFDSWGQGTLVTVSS
VL: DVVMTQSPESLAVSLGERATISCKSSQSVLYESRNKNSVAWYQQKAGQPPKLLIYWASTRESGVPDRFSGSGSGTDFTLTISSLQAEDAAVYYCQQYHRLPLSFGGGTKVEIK

Each variant is given by its three heavy chain CDRs, as the data file delimits them; those of the parent are GFTLNSYGIS, VIYSDGRRTFYGDSVK, GRAAGTFDS.
This list holds designs with at most six substitutions.
The Kd shown is the geometric mean over detected replicates; a lower Kd is a better binder.
"nd" marks a missing value. The strain was present, yet no cells mated with the target were sequenced in any replicate, which points to weak or no binding.
The authors' rule: three or more of the six replicates give a measured affinity, fewer mean a poor binder.

The variant GFVLNEYGIS, VIYSDGRRTFYGDSVK, GRNAGTFDS [GPLM_Gen] showed 4.7 nM (5 of 6 replicates).
The variant GFDLNSYGIS, VIYSDGRRTFYGDSVK, GQAAGTFDV [GP_Gen] showed 2.1 nM (6 of 6 replicates).
The variant GFTLNDYGIS, VIYSDGRRTFYGDSVK, GRMAGTFDT [GPLM_HC] showed nd (0 of 6 replicates).
The variant GFTLLSYGIS, VIYSDGRLTFYGDSVK, GRAAGTFDQ [Ctrl] showed nd (0 of 6 replicates).
The variant GFHLNSYGIS, VIYSDGRRTFYGDSVK, GRQAGTFDS [GPLM_Gibbs] showed 79 nM (4 of 6 replicates).
The variant GFTLNSYGIS, VIYSDGRRTFYGDQVK, GSEAGAFDS [Ctrl] showed nd (0 of 6 replicates).
The variant GFSLNWYGIS, VIYSDGRRTFYGDSVK, GRAAVTFDQ [GP_HC] showed nd (0 of 6 replicates).
The variant GFTLNEYGIS, VIYSDGRRTFYIDSVK, GRYAGTFDS [GP_HC] showed 13 nM (6 of 6 replicates).
The variant GFSLNSYGIS, VIYSDGRRTFYIDSVK, GHAAGTFDS [GPLM_Gen] showed 12 nM (3 of 6 replicates).
The variant GFDLNSYGIR, VIYSDGIRTFYRDSVK, GRAAFTFDS [Ctrl] showed nd (0 of 6 replicates).
The variant GFTLNLYGIS, VHYSDGCRTFYSDSVK, GRAAGFFDS [Rand] showed nd (0 of 6 replicates).
The variant GFSLNDYGIS, VIYSDGRRTFYCDSVK, GRTAGTFDS [GPLM_Gen] showed 8.8 nM (6 of 6 replicates).
The variant GFTLNEYGIS, VIYSDGRRTFYGDSVK, GRLAGTFDT [GPLM_Gen] showed 13 nM (5 of 6 replicates).
The variant GFTLNSYGIS, VIYSDGRRTFYDDSVK, GLLAGTFDT [GP_HC] showed 3.9 nM (6 of 6 replicates).
The variant GFVLNEYGIS, VIYSDGRRTFYGDSVK, GTAAGTFDS [GP_Gibbs] showed 12 nM (6 of 6 replicates).
The variant GFTLNSYGIS, VIYSDGRRTFYLDKVK, GEAYGTFFT [Ctrl] showed nd (0 of 6 replicates).
The variant GMTLNSYGIS, VIYSDGRRTFYQDSVK, GQLAGTFDS [GP_HC] showed 11 nM (1 of 6 replicates).
The variant GFSLNEYGIS, VIYSDGRRTFYMDSVK, GRTAGTFDS [GPLM_Gen] showed 1.1 nM (6 of 6 replicates).
The variant GFNLNSYGIS, VIYSDGRRTFYVDSVK, GNQAGTFDS [GP_Gibbs] showed 1.5 nM (6 of 6 replicates).
The variant GFTLNQYGIS, VIYSDGKRTFYADSVK, GRAAGTFDS [GPLM_HC] showed 1.3 nM (6 of 6 replicates).
The variant GFTLNSYGIS, RIYSDGRRTFYGDSVK, GRASGTFDS [Ctrl] showed nd (0 of 6 replicates).
The variant GFTLNSYGIS, VIYSDGKRTFYIDSVK, GRAAGTFDS [Ctrl+GPLM_Gibbs] showed 32 nM (4 of 12 replicates).
The variant GFTLNSYGIS, VIYSDGRRTEYGDSVK, GRAAGTFFQ [Ctrl] showed nd (0 of 6 replicates).
The variant GFTLNEYGIS, VIYSDGRRTFYGDSVK, GRAAGTFWS [GPLM_HC] showed nd (0 of 6 replicates).
The variant GFTLNMYGIS, VIYSDGRRTFYSDSVK, GRAGGRFDS [Rand] showed 9.3 nM (6 of 6 replicates).
The variant GFTLSMYGIS, VIYSDGMRTFYGDSVK, GQAAGTFDS [Ctrl] showed 510 nM (2 of 6 replicates).
The variant GFTLNSYGIS, VIYSDGRRTFYGDSVK, GRAALTFDE [GP_HC] showed nd (0 of 6 replicates).
The variant GFTLNDYGIS, VIYSDGRRTWYIDSVK, GRAAGTFDA [GP_HC] showed 22 nM (3 of 6 replicates).
The variant GFTLNSYGIS, VIYDDGRRTFYGDSVK, GRAAGTFSS [Ctrl] showed nd (0 of 6 replicates).
The variant GFQLNEYGIS, VIYSDGRRTFYSDSVK, GHAAGTFDS [GP_HC] showed 3.1 nM (6 of 6 replicates).
The variant GFSLNKYGIS, VIYSDGKRTFYGDSVK, GRQAGTFDS [GP_Gibbs] showed 10 nM (6 of 6 replicates).
The variant GFTLNSYGIS, VIYSDGRRTFYGQSVK, GDAAGTFDS [Ctrl] showed 74 nM (5 of 6 replicates).
The variant GYTLNQYGIS, VIYSDGRRPFYSDSVK, GRAAGFFDS [Rand] showed 47 nM (1 of 6 replicates).
The variant GFWLNDYGIS, VIYSDGRRTFYDDSVK, GRAAGTFDS [GP_HC] showed 23 nM (6 of 6 replicates).
The variant GFSLNQYGIS, VIYSDGQRTFYSDSVK, GRAAGTFDS [GPLM_HC] showed 29 nM (3 of 6 replicates).
The variant GFTLNSYGVS, VIYSDGRRTFYGDSQK, GAAAGIFDS [Ctrl] showed nd (0 of 6 replicates).

From the list, the first 5 with no signal in any replicate:

The variant GFTLNDYGIS, VIYSDGRRTFYGDSVK, GRMAGTFDT [GPLM_HC] gave nd (0 of 6 replicates).
The variant GFTLLSYGIS, VIYSDGRLTFYGDSVK, GRAAGTFDQ [Ctrl] gave nd (0 of 6 replicates).
The variant GFTLNSYGIS, VIYSDGRRTFYGDQVK, GSEAGAFDS [Ctrl] gave nd (0 of 6 replicates).
The variant GFSLNWYGIS, VIYSDGRRTFYGDSVK, GRAAVTFDQ [GP_HC] gave nd (0 of 6 replicates).
The variant GFDLNSYGIR, VIYSDGIRTFYRDSVK, GRAAFTFDS [Ctrl] gave nd (0 of 6 replicates).

Some sequences occur more than once in the pool; their replicates are pooled.
The range of this assay differs from that of the first round, and the authors advise against merging the two.
Empty control strains, which show no peptide, gave a signal in 1% of pairings with all heavy chain designs; the median was 120 nM and 95% of these signals were weaker than 7.0 nM. No background was subtracted.